# Rango release inh: inhibitors of RanGTP-induced Rango-importin beta complex dissociation. O95149+P62826. Biochemical FRET Rango-importin beta, RanGTP-induced dissociation. Potency, µM (titrated, usually from 46.1 µM), without a hit: at the highest dose activity change, negative = inhibition. 340,000 tested, 0.071% active. AID 540253; note: potency is the fitted concentration of half-maximal effect; % of control where 0% means no effect; nearly all actives have a fitted effect of over 45% in size
#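 Rango FRET biosensor (snurportin-1 IBB flanked by N-terminal EYFP and C-terminal CFP10) at 0.1 uM, with 0.25 uM importin beta in PBS, 1mM DTT, 0.02% Tween-20, 0.1% BSA. 0.6 uM Ran, 2mM GTP and 0.2 uM RCC1 were then added for 45 min at room temperature. Inhibition read as loss of FRET rise.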
# a7 integrin act: activators of alpha7 integrin expression for muscular dystrophy; 350,000 tested, 0.064% active; Potency, µM (titrated, usually from 38.3 µM), for the others: at the highest dose activation, usual class: activators; alpha7betagal myoblasts, beta-gal FDG fluorescence, 48 h; active = well fitted curve in the direction sought with a large enough effect; inconclusive = small, poorly fitted or top-dose-only effect, or another doubt; inactive = no such curve, though single readings can be large; an effect the other way counts as inactive or inconclusive;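 note: potency is the fitted concentration of half-maximal effect; 100% = response of the positive control SU9516; nearly all actives have a fitted effect of over 60% in size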
#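 alpha7betagal+/- myoblasts (passage 13, 250/well) treated 48 h at 37C with compounds at 1:260 dilution of DMSO stock. Lysed, then beta-galactosidase activity read as FDG fluorescence (ex 480/em 540) after 30 min, with pre-read for autofluorescence.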
# Rango-impB inh: prevents formation of the Rango-importin beta complex; Q14974; Rango CFP/YFP FRET sensor + importin beta, 45 min; Potency, µM (titrated, usually from 92.2 µM), for inactives: top-dose inhibition of complex formation; 340,000 tested, 0.031% active;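 note: potency is the fitted concentration of half-maximal effect; 0% = DMSO wells and 100% = buffer wells lacking importin beta; nearly all actives have a fitted effect of over 15% in size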
#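 FRET biosensor Rango (snurportin 1 IBB between N-terminal EYFP and C-terminal Cerulean), 50 nM in PBS/1 mM DTT/0.02% Tween-20/0.1% BSA, preincubated 5 min RT with compound; 0.125 microM importin beta added, 45 min RT, CFP/YFP FRET ratio read.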
# CCT chaperon mod: modulators of cytosolic chaperonin (CCT/TRiC) activity | purified chaperonin ATPase assay, HTRF ADP detection, 30 min | activity change, % (no concentration beside the values), hits read low | 360,000 tested, 0.3% active | AID 651819; in the data active = activity change below about -30%; note: % is set by controls: 0 for no effect and ±100 for the full control effect
#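 TRiC at 40 or 20 nM final (batch-dependent) in 30 mM Tris pH 7.4, 100 mM KCl, 5 mM MgCl2, 1 mM DTT, with compound at single 76 uM and 10 uM ATP, 30 min at 37 deg C. ADP detected by HTRF Transcreener, 665/615 ratio.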
# MmCpn inh: M. maripaludis TRiC chaperonin inhibition; AID 504842; purified Mm-Cpn ATPase, ADP Transcreener TR-FRET; 330,000 tested, 0.031% active; Potency, µM (series often up to 76.9 µM), for inactives: at the highest dose activity, negative = inhibition, actives largely listed as inhibitors; active = well fitted curve in the direction sought with a large enough effect; inconclusive = small, poorly fitted or top-dose-only effect, or another doubt; inactive = no such curve, though single readings can be large; an effect the other way counts as inactive or inconclusive; note: potency is the fitted concentration of half-maximal effect; % is set by controls: 0 for no effect and ±100 for the full control effect; nearly all actives have a fitted effect of over 80% in size
#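 ATP (10 uM final) was added to archaeal chaperonin (25 nM final) after 10 min exposure to test compound at 37°C; after 30 min further incubation, ADP was detected by competitive TR-FRET.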
# Numbers without * were called inactive; ? = inconclusive; nt = not tested or not shown; [ ] = remark or other dose. This is a sample that favours compounds with a hit; in the whole collection about 0.51% have one here. Unless noted, calls come from the whole dose curve.
SMILES,Rango release inh,a7 integrin act,Rango-impB inh,CCT chaperon mod,MmCpn inh
OC[C@@H]1CN(Cc2ccc(F)cc2)C[C@H](n2cnc3c(N4CCN(c5ccccc5)CC4)ncnc32)O1,nt,nt,nt,0,nt
CSc1ncccc1C(=O)OCC(=O)c1cc(C)n(C)c1C,5%,10µM*,-5%,-1,-24%
CCn1c(C)cc(C(=O)COC(=O)c2cccnc2SC)c1C,-2%,-1%,0%,-1,0%
FC(F)Oc1ccc(NC(=S)NCc2nc3ccccc3[nH]2)cc1,-5%,-3%,-3%,-37*,2%
CSc1ccc(CNC(=O)C2(C)CCCN2CC(C)C)cc1 (stereo not drawn),nt,nt,nt,2,nt
CC1Cn2cc(C(=O)Nc3ccccc3C(F)(F)F)c(=O)c3c(Cl)ccc(c32)O1 (stereo not drawn),nt,nt,nt,nt,-13%
Cc1nn2c(CN(C(=O)CN3CCOCC3)c3ccccc3)nnc2c2ccccc12,-7%,-5%,-2%,-34*,-1%
COC(=O)CSc1nc2c(cnn2-c2ccc(F)cc2)c(=O)[nH]1,0%,-7%,-4%,-32*,-2%
CCOC(=O)CSc1nc2c(cnn2-c2ccc(F)cc2)c(=O)[nH]1,6%,-20%,0%,0,1%
Cc1ccc(NC(=O)c2ncn(CCCNCC3CCCCC3)n2)cc1C,nt,-58%,nt,-1,nt
O=Nc1ccc(NO)c2ccccc12,nt,-56%,nt,0,nt
C=CCc1ccccc1OCC(=O)NNC(=S)NCc1ccccc1,-1%,?,-3%,-34*,3%
O=C(Nc1ccc(NC(=O)c2cccs2)c(Cl)c1)c1ccco1,20%,-17%,1%,-1,3%
O=C(Nc1ccc(NC(=O)c2sc3ccccc3c2Cl)cc1Cl)c1ccco1,-3%,-34%,-2%,-33*,0%
O=C(O)c1ccc2c(c1)C(=O)N([C@H](Cc1ccc(Cl)cc1)C(=O)O)C2=O,nt,nt,nt,nt,1%
Cc1ccc(-c2nn(CCC(=O)Nc3cccnc3)c(=O)c3ccccc23)cc1,-18%,-12%,-2%,-65*,1%
O=C(CCn1nc(-c2ccccc2)c2ccccc2c1=O)Nc1cccnc1,-7%,14%,2%,0,0%
O=C(O)c1sccc1NC(=O)c1c(Cl)cccc1Cl,16%,-37%,1%,0,1%
Cc1csc(C(=O)O)c1NC(=O)c1c(Cl)cccc1Cl,0%,-2%,-1%,-87*,0%
CCC(=O)N1CCc2cc(S(=O)(=O)CCC(=O)NCc3cccc(OC)c3)ccc21,-9%,17%,?,-66*,-1%
CCC(=O)N1CCc2cc(S(=O)(=O)CCC(=O)Nc3ccc(OC)c(OC)c3)ccc21,21%,9%,6%,-1,1%
CCC(=O)N1CCc2cc(S(=O)(=O)CCC(=O)NC3CCCCC3)ccc21,8%,?,6%,-75*,2%
CCC(=O)N1CCc2cc(S(=O)(=O)CCC(=O)NCc3ccccc3OC)ccc21,-10%,?,4%,-57*,?
CCC(=O)N1CCc2cc(S(=O)(=O)CCC(=O)NCc3ccc(C)cc3)ccc21,-11%,26%,-5%,-3,-1%
N=NC(=O)c1ccccc1Nc1c(O)[nH]c2ccccc12,1%,-20%,-1%,2,nt

# Full records from above. Values in the order: Rango release inh | a7 integrin act | Rango-impB inh | CCT chaperon mod | MmCpn inh
# Entry for `Cc1ccc(-c2nn(CCC(=O)Nc3cccnc3)c(=O)c3ccccc23)cc1` = -18% | -12% | -2% | -65* | 1%
# Entry for `O=C(O)c1ccc2c(c1)C(=O)N([C@H](Cc1ccc(Cl)cc1)C(=O)O)C2=O` = nt | nt | nt | nt | 1%

# Further compounds.
SMILES,Rango release inh,a7 integrin act,Rango-impB inh,CCT chaperon mod,MmCpn inh
CC1(C)CC(=O)C2=C(C1)O[C@@]1(CCCCN3C(=O)c4ccccc4C3=O)Cc3cc(C#N)ccc3C2O1,nt,nt,nt,nt,0%[15.4 µM]
CC(=O)NC(=S)Nc1sc2c(c1C#N)CCCCC2,-4%,6%,2%,-31*,2%
CC(=O)Nc1sc2c(c1C#N)CCCC2,3%,18%,-2%,-3,nt
COc1ccc(/C=C/C(=O)OCC(=O)N2c3ccccc3CC2C)c(OC)c1 (stereo not drawn),nt,1%,nt,-1,nt
Cc1ccc2c(c1)CCCN2C(=O)c1cccs1,-3%,-8%,5%,-5,0%
Cc1ccc2c(c1)CCCN2C(=O)c1cc(C)c(C)s1,-15%,-6%,0%,-33*,-8%
Cn1cc(CN2CCC(C(=O)NC(c3ccc(F)cc3)c3ccc4ccccc4n3)CC2)c2ccccc21 (stereo not drawn),nt,nt,nt,2,nt
COCCNC(=O)CN1C(=O)NC2(CCCc3cc(OC)ccc32)C1=O (stereo not drawn),-2%,26%,1%,-36*,-2%
C[C@@H]1CCCCO[C@H](CN(C)Cc2ccc3c(c2)OCO3)[C@@H](C)CN([C@H](C)CO)C(=O)c2cc(NC(=O)c3ccccc3)ccc2O1,nt,21%,nt,-1,nt
Fc1ccc(-c2cc(C(F)(F)C(F)F)[nH]n2)cc1,1%,2%,4%,-37*,0%
O=C1Nc2cc(C(=O)N3CCN(c4ccccn4)CC3)ccc2S/C1=C\c1ccccc1,28%,28%,2%,-42*,1%
COc1ccc(OC(=O)c2ccc3nsnc3c2)cc1,2%,-15%,7%,-48*,1%
Cc1cc(C)c(NC(=O)CN(C)CC(=O)N(C)CC(=O)Nc2c(Cl)cccc2Cl)c(C)c1,-22%,27%,0%,-57*,0%
CCOC(=O)C1=CCN(S(=O)(=O)c2ccccc2C)C1c1ccccc1 (stereo not drawn),nt,nt,nt,-1,nt
COCCCNC(=O)/C(C#N)=C/c1c(N2CCN(C)CC2)nc2c(C)cccn2c1=O,?,6%,?,0,-2%
COCCCNC(=O)/C(C#N)=C/c1c(N2CCN(c3ccc(OC)cc3)CC2)nc2c(C)cccn2c1=O,4.6µM*,-7%,?,-3,-3%
O=C(NCCc1ccccc1)C1CCC(=O)N1C1CCCC1 (stereo not drawn),1%,10µM*,-4%,0,0%
COc1cc(Cl)cc(CN2CCC(CCC(=O)NC3CC3)CC2)c1OC,3%,7.1µM*,4%,-2,-4%
O=C(COC(=O)c1cccc([N+](=O)[O-])c1)Nc1ccc(Cl)cn1,-8%,31%,-2%,-42*,2%
Cc1cccc(OCc2nc(C#N)c(N3CCCC3)o2)c1,1%,3.5µM*,1%,-30*,6%
CC(=O)NC1=C(NC2CCS(=O)(=O)C2)C(=O)c2ccccc2C1=O (stereo not drawn),31%,0%,0%,-44*,0%
O=C(N/N=C/c1c(O)ccc2ccccc12)Nc1ccccc1,?,0%,65µM*,-1,nt
O=C(CSCC(=O)Nc1ccccc1)N/N=C/c1c(O)ccc2ccccc12,?,0%,?,-3,4%
Cc1cccc(OCC(=O)Nc2ccccc2C(F)(F)F)c1,29%,24%,-4%,-1,1%
Cc1cccc(C)c1OCC(=O)Nc1ccccc1C(F)(F)F,5%,-44%,3%,-38*,1%
O[C@@H]1CN(Cc2cccs2)[C@@H](c2ccc(Cl)cc2)C[C@H]1n1cc(-c2ccc(F)cc2)nn1,nt,0%,nt,0,nt

# By substructure, the compounds so far with an NH in an aromatic ring.
SMILES,Rango release inh,a7 integrin act,Rango-impB inh,CCT chaperon mod,MmCpn inh
FC(F)Oc1ccc(NC(=S)NCc2nc3ccccc3[nH]2)cc1,-5%,-3%,-3%,-37*,2%
COC(=O)CSc1nc2c(cnn2-c2ccc(F)cc2)c(=O)[nH]1,0%,-7%,-4%,-32*,-2%
CCOC(=O)CSc1nc2c(cnn2-c2ccc(F)cc2)c(=O)[nH]1,6%,-20%,0%,0,1%
N=NC(=O)c1ccccc1Nc1c(O)[nH]c2ccccc12,1%,-20%,-1%,2,nt
Fc1ccc(-c2cc(C(F)(F)C(F)F)[nH]n2)cc1,1%,2%,4%,-37*,0%

# Screening results deposited in PubChem BioAssay by National Center for Advancing Translational Sciences (NCATS).
